pIC50: −log10 of the molar value.
Target: T1, HMG-CoA reductase (Homo sapiens, UniProt P04035)
T1 construct: gene HMGCR; catalytic domain of the human enzyme (recombinant GST fusion protein expressed in E. coli)
T1 sequence (P04035 426-888 limits assumed): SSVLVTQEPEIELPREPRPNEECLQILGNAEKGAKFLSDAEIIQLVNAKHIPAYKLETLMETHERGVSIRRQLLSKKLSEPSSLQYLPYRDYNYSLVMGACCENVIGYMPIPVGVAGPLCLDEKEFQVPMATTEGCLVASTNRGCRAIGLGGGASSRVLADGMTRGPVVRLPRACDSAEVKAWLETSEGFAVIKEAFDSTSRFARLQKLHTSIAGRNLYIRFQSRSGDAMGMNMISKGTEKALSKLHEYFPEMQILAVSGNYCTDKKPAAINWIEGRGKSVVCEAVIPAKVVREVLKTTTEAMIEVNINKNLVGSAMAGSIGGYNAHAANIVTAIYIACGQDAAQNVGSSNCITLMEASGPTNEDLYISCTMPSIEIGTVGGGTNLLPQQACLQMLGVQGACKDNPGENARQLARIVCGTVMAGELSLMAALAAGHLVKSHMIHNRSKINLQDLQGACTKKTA
Experiment: spectrophotometric HMG-CoA reductase assay kit (Sigma), NADPH oxidation
Type: biochemical

CC[C@H](C)C(=O)O[C@H]1C[C@H](O)C=C2C=C[C@H](C)[C@H](CC[C@@H](O)C[C@@H](O)CC(=O)O)[C@H]21 [Pravastatin]
pIC50: 7.15

Reference: paper PMC4352280, “Bioactivity guided fractionation and hypolipidemic property of a novel HMG-CoA reductase inhibitor from Ficus virens Ait” (Lipids in Health and Disease, 2015)
